According to patent publication US12053522B2, “Pro-inflammatory and anti-cancer functions of toll-like receptor 4 antagonists” (Children's Medical Center Corporation, priority 2015, dated 2024):

System: bone marrow derived DCs
Test: IL-1β release from DCs (ELISA)
Format: cell-based, mouse
Details: LPS-primed, oxPAPC-treated
Description: NLRP3 KO and ASC KO mice were kindly provided by Dr. T. Horng, Harvard School of Public Health. Caspase-11 KO mice were kindly provided by Dr. Junying Yuan, Harvard Medical School. Caspase-1 single KO mice were kindly provided by Thirumala-Devi Kanneganti (St. Judes). DCs were differentiated from bone marrow in IMDM (Gibco), 10% B16-GM-CSF derived supernatant, 2 μM 2-mercaptoethanol and 10% FBS and used after 6 day of culture. […] MO were differentiated from bone marrow in DMEM (Gibco), 30% L929 supernatant, and 10% FBS. Immortal MΦs were cultured in DMEM supplemented with 10% L929 supernatant and 10% FBS. […]
RNA was isolated from cell cultures using Qiashedder (Qiagen) and GeneJET RNA Purification Kit (Life Technologies). Purified RNA was analyzed for gene expression on a CFX384 real time cycler (Bio-rad) using TaqMan RNA-to-CT 1-Step Kit (Applied Biosystems) with probes purchased from Life Technologies specific for viperin (Mm00491265_m1), IFNb1 (Mm00439552_s1), IL6 (Mm00446190_m1), caspase-1 (Mm00438023_m1), caspase-11 (Mm00432307_m1), Nlrp3 (Mm00840904_m1), Asc (Mm00445747_g1), TBP (Mm00446971_m1) or GAPDH (Mm99999915_g1). ELISA for IL-1β, IL-2, IL-17, IL-18, TNFα and IFNγ were performed using Mouse Ready-SET-Go ELISA kits (eBioscience). […] Cell associated cytokines were measured as follows: 96-well plates were centrifuged and supernatant was discarded. […]

B1: recombinant IFNβ: Recombinant IFNβ from R&D Systems (protein, UniProt P01574 22-187, looked up)
Interferon beta: MSYNLLGFLQRSSNFQCQKLLWQLNGRLEYCLKDRMNFDIPEEIKQLQQFQKEDAALTIYEMLQNIFAIFRQDSSSTGWNETIVENLLANVYHQINHLKTVLEEKLEKEDFTRGKLMSSLHLKRYYGRILHYLKAKEYSHCAWTIVRVEILRNFYFINRLTGYLRN
  rescue of defect in IL-1β secretion in CD14 KO cells: could not be rescued
